A short description of the assay: Inhibition of beta hematin formation assessed as ratio of molar equivalents of compound to molar equivalents of hematin for 50% inhibition after 18 hrs. Format: functional.

For `CCCCNC(=O)C[C@H](O)[C@H](CC(C)C)NC(=O)[C@@H](NC(=O)c1ccc(Oc2ccc(C(=O)N[C@@H](C)C(=O)NCCCNc3ccnc4cc(Cl)ccc34)cc2)cc1)[C@@H](C)CC`, the Ratio came to 0.79.

As for `CCCCNC(=O)C[C@H](O)[C@H](CC(C)C)NC(=O)[C@@H](NC(=O)c1ccc(Oc2ccc(C(=O)N[C@@H](CC(C)C)C(=O)N[C@@H](C)C(=O)NCCCNc3ccnc4ccccc34)cc2)cc1)[C@@H](C)CC`, the Ratio is 5.16.

For the origin of these results see ChEMBL document CHEMBL2069175, “Antiplasmodial activities of 4-aminoquinoline-statine compounds” (Bioorg Med Chem Lett, 2012).
